Measured values taken from ChEMBL document CHEMBL4725369, “Multicomponent Synthesis, Binding Mode, and Structure-Activity Relationship of Selective Histone Deacetylase 6 (HDAC6) Inhibitors with Bifurcated Capping Groups” (J Med Chem, 2020).

Columns and labels:
[1] = species: Homo sapiens; test: Selectivity index, ratio of IC50 for inhibition of human recombinant HDAC2 to IC50 for inhibition of human recombinant HDAC6
[2] = species: Homo sapiens; test: Selectivity index, ratio of IC50 for inhibition of human recombinant HDAC3 to IC50 for inhibition of human recombinant HDAC6
[3] = species: Homo sapiens; test: Selectivity index, ratio of IC50 for inhibition of human recombinant HDAC4 to IC50 for inhibition of human recombinant HDAC6

Ratio IC50 [1]: 75
Ratio IC50 [2]: 282
Ratio IC50 [3]: 184
Compound: O=C(NO)c1ccc(CN(Cc2nnnn2Cc2ccccc2)C(=O)c2ccccc2C(F)(F)F)cc1
